For this test, the target named is Dihydroorotate dehydrogenase (quinone), mitochondrial (Homo sapiens, UniProt Q02127). Format: ADME.

Amino acid sequences for entries named in this document (tags omitted). A change or cut given only in a name is not applied to a line headed by its entry.
UniProt Q02127: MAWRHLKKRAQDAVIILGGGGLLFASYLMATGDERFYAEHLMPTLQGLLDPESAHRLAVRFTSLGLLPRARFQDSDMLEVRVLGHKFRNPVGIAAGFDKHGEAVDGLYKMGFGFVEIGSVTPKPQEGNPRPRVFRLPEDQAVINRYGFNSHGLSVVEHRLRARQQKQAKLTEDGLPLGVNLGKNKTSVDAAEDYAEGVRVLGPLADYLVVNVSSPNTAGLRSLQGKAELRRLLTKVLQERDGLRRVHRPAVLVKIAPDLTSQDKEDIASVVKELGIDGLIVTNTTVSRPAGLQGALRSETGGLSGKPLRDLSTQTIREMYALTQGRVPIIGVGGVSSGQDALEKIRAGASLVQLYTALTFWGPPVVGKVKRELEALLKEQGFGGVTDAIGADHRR

The IC50 is the point on the concentration scale where inhibition reaches its midpoint. In the case of `Cc1cc(Nc2ccc(S(F)(F)(F)(F)F)cc2)n2nc(C(F)(F)F)nc2n1`, the 50% inhibitory concentration (IC50) is > 100 µM.

The values above are taken from ChEMBL document CHEMBL4811258, “Potent Antimalarials with Development Potential Identified by Structure-Guided Computational Optimization of a Pyrrole-Based Dihydroorotate Dehydrogenase Inhibitor Series” (J Med Chem, 2021).
